Measurements taken from patent publication US20190298674A1 (Ovid Therapeutics, Inc., priority 2018, published 2019).

Test: plasma pharmacokinetics
Conditions: over a range of 5 mg-500 mg

N[C@H]1C[C@@H](C(=O)O)CC1=C(F)F
Cmax dose proportionality: increases in a dose proportional manner
